Measured values from ChEMBL document CHEMBL5634209, “Computational design, synthesis, and assessment of 3-(4-(4-(1,3,4-oxadiazol-2-yl)-1H-imidazol-2-yl)phenyl)-1,2,4-oxadiazole derivatives as effective epidermal growth factor receptor inhibitors: a prospective strategy for anticancer therapy” (RSC Med Chem, 2024).

Experiments:
Homo sapiens = species: Homo sapiens; test: Selectivity index, ratio of IC50 for inhibition of EGFR T790M mutant (unknown origin) to IC50 for inhibition of wild type EGFR (unknown origin)
[1] = target: T1, Epidermal growth factor receptor (Homo sapiens, UniProt P00533); test: Inhibition of EGFR autophosphorylation in human HepG2 cells assessed as fold change in EGFR protein level at 440 nM pretreated with compound for 1 hr followed by EGF addition by western blot analysis; format: cell-based
[2] = target: T1, Epidermal growth factor receptor; test: Inhibition of EGFR autophosphorylation in human HepG2 cells assessed as fold change in phosphorylated EGFR protein level at 440 nM pretreated with compound for 1 hr followed by EGF addition by western blot analysis; format: cell-based

Ratio IC50 (Homo sapiens): 10
fold change (FC) [1]: 0.22
fold change (FC) [2]: 0.17
Structure (SMILES): COc1cc(-c2nc(-c3ccc(-c4nc(-c5nnc(-c6ccncc6)o5)c[nH]4)cc3)no2)cc(OC)c1OC
